High-throughput results as filed in PubChem.
miR-21 reporter: miR-21 reporter, rising signal | Potency, µM (highest dose often 38.3 µM), for inactives: at the highest dose reporter change, positive = more light | 340,000 tested, under 10 active | HeLa miR-21 FLuc reporter, luciferase, 48 h; active = well fitted rising curve with a large enough effect; inconclusive = small, poorly fitted or top-dose-only effect; inactive = no such curve, though single readings can be large or run the other way;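 note: % of control where 0% means no effect; miR-21 action dims this reporter so a rising signal means less miR-21 action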
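Luminescence from a firefly luciferase reporter carrying a miR-21 binding site downstream, stably expressed under a CMV promoter in HeLa cells that make miR-21 endogenously, reports miRNA modulation after 48 h compound exposure up to approximately 40uM final.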
rTrxR1 inhibitor: rat TrxR1 inhibition. Potency, µM (doses to about 114 µM), for the others: top-dose activity change, negative = inhibition, hits mostly inhibitors. 1% of 390,000 active. recombinant rTrxR1, NADPH fluorescence consumption, selenite substrate. O89049. AID 588453; also: potency is read from the fitted curve at half-maximal effect; % is scaled to controls: 0 for no effect and ±100 for the full control effect; nearly all actives have a fitted effect of over 65% in size
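Rat TrxR1 (90 nM in the dispensed reagent) was pre-reduced with 400 uM NADPH for 5 min at room temperature, then incubated with compound for 15 min. After 400 uM selenite was added, NADPH fluorescence (Ex 340/Em 450 nm) was followed for 8 min.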
ClpP mod: qHTS Assay for Activators of ClpP. purified B. subtilis ClpP, FRET peptide cleavage, 20 min. AID 651965, 2013. Potency, µM (series often up to 57.5 µM), without a hit: at the top dose activity change, negative = active. ATP-dependent Clp protease proteolytic subunit (Bacillus subtilis (strain 168)), P80244. 1.9% of 340,000 active; active = well fitted falling curve with a large enough effect; inconclusive = small, poorly fitted or top-dose-only effect; inactive = no such curve, though single readings can be large or run the other way; also: potency is read from the fitted curve at half-maximal effect; the source files actives as falling curves though it sought activators and does not explain the sign; nearly all actives have a fitted effect of over 65% in size
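ClpP 10 microg/mL final, pH 8 Tris/KCl buffer with BSA, glycerol, Tween-20; compound pinned in; FRET-FV substrate; RT 20 min; Ex320/Em430; ΔFRET vs ADEP 5.8 microM, DMSO, no enzyme.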
TrxR1 substrate: is turned over as a substrate by rat TrxR1; O89049; purified TrxR1 substrate turnover, NADPH consumption readout; Potency, µM (highest dose often 114 µM), for inactives: top-dose activity change, negative = substrate turnover; 0.01% of 390,000 active; also: potency is read from the fitted curve at half-maximal effect; % is scaled to controls: 0 for no effect and ±100 for the full control effect; nearly all actives have a fitted effect of over 50% in size
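Rat TrxR1, dispensed at 90 nM, was prereduced with 400 uM NADPH (final) for 5 min at ~22 deg C, then incubated with compound 15 min before 400 uM selenite. A first-read NADPH fluorescence drop versus no-compound background flagged substrates.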
Anesthetic bind: binds horse apoferritin like a general anesthetic; P02791; apoferritin/1-aminoanthracene competitive binding, fluorescence; Potency, µM (doses to about 77.5 µM), inactives show at the highest dose activity change, negative = displacement, hits mostly inhibitors; 0.074% of 350,000 active; AID 485281; also: potency is read from the fitted curve at half-maximal effect; % is scaled to controls: 0 for no effect and ±100 for the full control effect; nearly all actives have a fitted effect of over 20% in size
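Horse-spleen apoferritin (10 uM) in 50% saturated 1-aminoanthracene in PBS was incubated 10 min at room temperature with compound. Fluorescence (ex 380, em 535 nm) was normalized to free and bound 1-AMA, with concentration-response fitted by a four-parameter Hill equation.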
ClpP inh valid: validation of B. subtilis ClpP protease hits (inhibitors); 40% of 470 active; shares compounds with ClpP mod; purified B. subtilis ClpP, FRET-FV substrate cleavage, 20 min; Potency, µM (highest dose often 57.5 µM), for inactives: top-dose activity change, negative = inhibition, usual class: inhibitors; also: potency is read from the fitted curve at half-maximal effect; % is scaled to controls: 0 for no effect and ±100 for the full control effect; nearly all actives have a fitted effect of over 70% in size
The depositor's hits bear a star; ? = inconclusive; / = no result given; [ ] = another dose, or the depositor's remark. Only some compounds are listed: those with a hit (about 2.5% of all), similar ones and a draw of the others. Unless noted, calls follow the shape of the dose curve; as a rule, active = well fitted curve in the direction sought with a large enough effect; inconclusive = small, poorly fitted or top-dose-only effect, or another doubt; inactive = no such curve, though single readings can be large; an effect the other way counts as inactive or inconclusive.

The chains behind the UniProt entries cited, without tags or fusion partners.
ATP-dependent Clp protease proteolytic subunit (Bacillus subtilis (strain 168)), P80244, UniProt P80244, whole entry, looked up: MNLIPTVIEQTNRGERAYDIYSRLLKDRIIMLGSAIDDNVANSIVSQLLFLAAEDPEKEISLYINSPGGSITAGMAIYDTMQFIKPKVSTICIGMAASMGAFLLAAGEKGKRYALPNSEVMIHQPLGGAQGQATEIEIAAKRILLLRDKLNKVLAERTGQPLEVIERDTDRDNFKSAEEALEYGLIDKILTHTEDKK

nr	structure	miR-21 reporter	rTrxR1 inhibitor	ClpP mod
1	O=C(Nc1ccccc1OC(F)F)c1oc2ccccc2c1COc1ccccc1	-7%	-23%	289%
2	CN(Cc1ccccc1)c1ncnc2c1nnn2C	-1%	0%[57.1 µM]	-2%
3	O=C(CCOc1ccccc1)Nc1ccc(Br)cc1	-53%	7%[57.1 µM]	7.9µM*
4	O=C(CCCOc1ccccc1)Nc1ccc(Br)cc1	/	12%[57.1 µM]	1%
5	COc1ccc(Nc2nc(N3CCN(S(C)(=O)=O)CC3)nc3ccccc23)c(OC)c1	-6%	8%	/
6	CC(Nc1nc(N2CCN(S(C)(=O)=O)CC2)nc2ccccc12)c1ccccc1 (stereo not drawn)	-9%	-21%	4µM*
7	Cc1ccc(Cl)cc1N1CCN(C(=O)C2CCN(S(=O)(=O)Cc3ccccc3)CC2)CC1	20%	6%	2%
8	CC1=C(c2ccc(C)cc2)S(=O)(=O)N(Cc2ccc(C(=O)Nc3ccccc3C)cc2)C1=O	28%	24%[57.1 µM]	-3%

nr	TrxR1 substrate	Anesthetic bind	ClpP inh valid
1	51%	2%	19µM*
2	-8%[57.1 µM]	-16%	/
3	-2%	-7%	0%
4	-5%	/	/
5	43%	365%	/
6	53%	-17%	24µM*
7	-7%	-6%	/
8	3%[57.1 µM]	-9%	/

3 structures already listed, ordered by length of the SMILES, highest first.
nr	structure	miR-21 reporter	rTrxR1 inhibitor	ClpP mod
5	COc1ccc(Nc2nc(N3CCN(S(C)(=O)=O)CC3)nc3ccccc23)c(OC)c1	-6%	8%	/
6	CC(Nc1nc(N2CCN(S(C)(=O)=O)CC2)nc2ccccc12)c1ccccc1 (stereo not drawn)	-9%	-21%	4µM*
4	O=C(CCCOc1ccccc1)Nc1ccc(Br)cc1	/	12%[57.1 µM]	1%

nr	TrxR1 substrate	Anesthetic bind	ClpP inh valid
5	43%	365%	/
6	53%	-17%	24µM*
4	-5%	/	/

The list goes on:
nr	structure	miR-21 reporter	rTrxR1 inhibitor	ClpP mod
9	CC1=C(c2ccc(C)cc2)S(=O)(=O)N(Cc2ccc(C(=O)NCc3ccccc3)cc2)C1=O	4%	21%[57.1 µM]	5µM*
10	COc1cccc2c3c(c(C)nc12)CC(C)O3 (stereo not drawn)	-20%	-5%	7.9µM*
11	COc1ccc2nc(C)c3c(c2c1)OC(C)C3 (stereo not drawn)	-3%	0%	?
12	O=C1Cc2cc(S(=O)(=O)N3CCNCC3)ccc2N1	/	-33%	104%
13	COc1cc(C(=O)Nc2ccc3oc(-c4ccccc4)nc3c2)cc(OC)c1OC	?	20%	4%
14	CN(C)c1cccc(C(=O)Nc2ccc(-c3nc4ccccc4s3)cc2)c1	23%	1%[57.1 µM]	3.5µM*
15	COc1ccccc1C(=O)Nc1ccc(-c2nc3ccccc3s2)c(C)c1	-58%	-12%[57.1 µM]	2µM*
16	COc1ccc(-c2nc3ccccc3s2)cc1NC(=O)c1cccc(F)c1	-17%	31%[57.1 µM]	74%

nr	TrxR1 substrate	Anesthetic bind	ClpP inh valid
9	3%[57.1 µM]	-6%	-2%
10	257%	-6%	7.7µM*
11	33%	-13%	/
12	-19%	/	6%
13	11%	-13%	/
14	22%[57.1 µM]	33%	-1%
15	11%[57.1 µM]	6%	-1%
16	13%[57.1 µM]	2%	?

Other records follow.
nr	structure	miR-21 reporter	rTrxR1 inhibitor	ClpP mod
17	CCc1ccc(NC(=O)c2sc3nc(C)cc(C)c3c2NC(=O)c2ccccc2OC)cc1	-39%	17%[11.4 µM]	41%
18	CC(C)Oc1ccc(C(=O)Nc2ccc(-c3nc4ccccc4s3)cc2)cc1	-34%	11%	-20%
19	Cc1ccc(C(=O)Nc2ccc(-c3nc4ccccc4s3)c(O)c2)c(C)c1	-53%	11%[57.1 µM]	1%
20	Cc1ccc(Cn2c(C(=O)Nc3ccc(Cl)cc3)cc3sccc32)cc1	-7%	0%	?
21	Cc1cccc(C)c1NC(=O)c1ccc2c(c1)N(Cc1cccc(Cl)c1)C(=O)c1ccccc1S2=O (stereo not drawn)	-6%	15%	0%
22	CCc1cccc(C)c1NC(=O)C1CCN(S(=O)(=O)c2c(C)noc2/C=C/c2c(C)cc(C)cc2C)CC1	1%	8%[57.1 µM]	-3%
23	Cc1cc(N2CCCCC2)nc2ccc(NC(=O)c3ccc(F)cc3)cc12	12%	20%[11.4 µM]	23%
24	Cc1cc(N2CCOCC2)nc2ccc(NC(=O)CCC(=O)N3CCCCC3)cc12	-32%	-8%	7.1µM*

nr	TrxR1 substrate	Anesthetic bind	ClpP inh valid
17	16%	-7%	24µM*
18	2%	10%	/
19	0%[57.1 µM]	136%	/
20	9%	21%	/
21	3%	17%	/
22	-4%[57.1 µM]	-6%	/
23	11%[11.4 µM]	85%	-8%
24	157%	-4%	24µM*

Going on with the list:
nr	structure	miR-21 reporter	rTrxR1 inhibitor	ClpP mod
25	CCOC(=O)N1CCN(C(=O)c2ccc(S(=O)(=O)Nc3ccc(C)cc3)cc2)CC1	/	2%[11.4 µM]	115%
26	CCOc1ccc(OCC)c(NC(=O)Cn2ncc3c4ccccc4n(Cc4ccccc4)c3c2=O)c1	-4%	9%	-2%
27	CCN(CC)C(=O)c1c2c(nc3ccccc13)-c1ccccc1CC2	0%	0%[57.1 µM]	8.9µM*
28	CC(=O)Nc1ccn(C2CC3OCC(NC(=O)C(Cc4ccccc4)NC(=O)OC(C)(C)C)C3O2)c(=O)n1 (stereo not drawn)	/	9%	/
29	CC(C)c1ccc(Nc2ncnc3c2c(-c2ccccc2)cn3-c2ccccc2)cc1	0%	33%[57.1 µM]	2.5µM*
30	CC(=O)Nc1ccc(Nc2ncnc3c2c(-c2ccccc2)cn3-c2ccccc2)cc1	5%	13%[57.1 µM]	-12%
31	CCC(=O)Oc1ccc2c(C)cc(=O)oc2c1C	2%	-5%	52%
32	Cc1cc(=O)oc2c(C)c(OC(=O)c3ccco3)ccc12	/	-10%	32%

nr	TrxR1 substrate	Anesthetic bind	ClpP inh valid
25	4%[57.1 µM]	/	-1%
26	1%	1%	/
27	13%[57.1 µM]	3%	22µM*
28	4%	-4%	/
29	9%[57.1 µM]	-10%	24µM*
30	5%[57.1 µM]	0%	/
31	20%	18%	/
32	13%	/	7%

(continued)
nr	structure	miR-21 reporter	rTrxR1 inhibitor	ClpP mod
33	Cc1ccc(C)c(N2CCN(C(=O)c3ccc(NC(=O)c4nsc5ccccc45)cc3)CC2)c1	-31%	24%[57.1 µM]	-1%
34	Cc1c(C(=O)Nc2ccc(-c3nc4cc(Cl)ccc4o3)cc2)oc2ccccc12	-3%	26%	8.9µM*
35	COc1cccc(NC(=O)Cn2c(-c3cncs3)nc3ccccc32)c1	-2%	35%[57.1 µM]	8.9µM*
36	COc1cccc(CCNC(=O)c2cnc3sc(N4CCOCC4)nn3c2=O)c1	-8%	9%	-16%
37	COc1ccc(-c2oc3ncn4nc(COc5ccc(Cl)cc5)nc4c3c2-c2ccc(OC)cc2)cc1	-2%	5%	35%
38	COc1ccc(-c2oc3ncn4nc(COc5c(C)cccc5C)nc4c3c2-c2ccc(OC)cc2)cc1	-4%	14%	4%
39	O=C(Nc1ccc(F)cc1)c1ccc2c(c1)NC(=O)c1ccccc1S2	28%	14%	0%
40	COc1cccc(-c2cn3c(n2)sc2cc(C(=O)NC4CCCCCC4)ccc23)c1	0%	5%	4µM*

nr	TrxR1 substrate	Anesthetic bind	ClpP inh valid
33	4%[57.1 µM]	?	/
34	14%	6%	15µM*
35	1%[57.1 µM]	-13%	-7%
36	44%	20%	/
37	10%	0%	?
38	8%	-3%	/
39	6%	-5%	/
40	-4%	5%	24µM*

The results go on.
nr	structure	miR-21 reporter	rTrxR1 inhibitor	ClpP mod
41	COc1cccc(-c2cn3c(n2)sc2cc(C(=O)NC4CCCCC4)ccc23)c1	3%	9%	?
42	O=C(NC1CCCCC1)c1ccc2c(c1)sc1nc(-c3ccc(F)cc3)cn12	10%	7%	10µM*
43	COc1ccc(-c2cn3c(n2)sc2cc(C(=O)NC4CCCCCC4)ccc23)cc1	-3%	3%	-15%
44	COc1ccc(Nc2ncc3c(n2)CCN(Cc2cccc(F)c2F)C3)c(OC)c1	2%	6%[57.1 µM]	-1%

nr	TrxR1 substrate	Anesthetic bind	ClpP inh valid
41	0%	-1%	24µM*
42	-2%	?	-8%
43	2%	?	/
44	-2%[57.1 µM]	-3%	/
